The values that follow are results of earlier work, collected in patent publication US20250062039A1, “ESTIMATION OF PHARMACOKINETIC (PK) PARAMETERS OF DRUG CANDIDATES USING UNIVERSAL PK PARAMETERS BOUNDS” (Tata Consultancy Services Limited, priority 2023, published 2025).

This is a selection: effects in other tests are not listed, and their absence says nothing. A number of entries come with more than one value. Only these are listed. The source may hold further records. Values that stand side by side differ for a reason that is not stated; some may be repeats, others may stem from another dose, organism or construct than stated.

For this series the following is noted: IV Bolus 161.74 μg; individual values of subjects 1-7; cited from earlier work.

Consider `CCC(=O)N(c1ccccc1)C1(COC)CCN(CCn2nnn(CC)c2=O)CC1`, for which the CL is 18.24, 15.26, 23.38, 12.29, 10.49, 7.91, 12.41 L/hr; the T1/2beta is given as 1.76, 1.42, 1.25, 1.52, 1.97, 2.34, 1.14 hr; the V2 is 23.52, 16.22, 24.18, 12.25, 18.26, 10.17, 9.34 L; the Vss is 38.69, 25.16, 35.28, 23.25, 26.52, 23.21, 18.49 L.
